CYP3A4 enzyme activity induction response (in words) (CYP3A4): no induction response
CYP3A4 mRNA expression induction response (in words) (CYP3A4 mRNA): no induction response
Structure (SMILES): COc1cc(NC(C)CCCN)c2ncccc2c1 (centres unmarked) [Primaquine]

Reference: PMC5267519, “Evaluation of a Novel Renewable Hepatic Cell Model for Prediction of Clinical CYP3A4 Induction Using a Correlation-Based Relative Induction Score Approach” (Drug Metabolism and Disposition, 2017)
